Reference: ChEMBL document CHEMBL4419169, “Novel Ferroportin Inhibitors” (2018)

Key:
Assay type in all cases: functional
Set-up in all cases: scale not given: the % may be the effect or the level left
[1] = system: Mus musculus; test: Disease modifying capacity in mouse model of transfusion-independent beta-thalassemia intermedia assessed as decrease in serum erythropoietin at 60 mg/kg, po BID for 46 days relative to control
[2] = system: Mus musculus; test: Disease modifying capacity in mouse model of transfusion-independent beta-thalassemia intermedia assessed as decrease in leukocyte counts level at 60 mg/kg, po BID for 46 days relative to control
[3] = system: Mus musculus; test: Disease modifying capacity in mouse model of transfusion-independent beta-thalassemia intermedia assessed as decrease in relative spleen weight at 20 mg/kg, po BID for 46 days relative to control
[4] = system: Mus musculus; test: Prevention of hyperferremia in iron overloaded beta2-microglobulin deficient female mouse assessed as reduction in serum iron level at 20 mg/kg, po measured after 1 hr relative to control

**Q.** What does the source list for `Cl.Cl.Cl.O=C(NCc1ncccc1F)c1csc(CCNCc2nc3ccccc3[nH]2)n1`?
**A.** Activity [1]: 37%; Activity [2]: 36%; Activity [3]: 23%; Activity [4]: 35%
